## Binding of CDR-mutated scFvs to a peptide of the spike HR2 region

All variants were tested on one target, the spike HR2 peptide PDVDLGDISGINAS (SARS-CoV-2).

The variants keep the heavy chain, the linker and the frameworks of Ab-14 (scFv order VH, three GGGGS repeats, VL).
VH: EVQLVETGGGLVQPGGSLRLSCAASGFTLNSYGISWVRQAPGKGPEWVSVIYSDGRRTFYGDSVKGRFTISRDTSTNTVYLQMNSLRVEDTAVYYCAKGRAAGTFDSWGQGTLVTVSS
VL: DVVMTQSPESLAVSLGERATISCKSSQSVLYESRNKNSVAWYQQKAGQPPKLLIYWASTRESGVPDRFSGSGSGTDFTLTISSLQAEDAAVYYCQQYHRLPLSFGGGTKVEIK

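The starting antibody came from a phage panning campaign against this peptide. Designed CDR sequences, proposed from the first random library and measured here. Their group label is 14L_En_Gen (En: ensemble of fine-tuned language models; Gen: genetic algorithm). The assay is AlphaSeq: two haploid yeast populations carry antibody and antigen on their surface. Binding brings cells together so that they mate, and sequencing counts the barcode pairs among the diploids. Read counts were normalised to the haploid input and turned into Kd by a linear fit to BCL2-family pairs of known affinity, for each replicate. There are six technical replicates.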

Variants are written as CDR1, CDR2 and CDR3 of the light chain (limits as in the source). Parent: KSSQSVLYESRNKNSVA, WASTRES, QQYHRLPLS. Scale: log10 of Kd in nM, estimated from mating counts; low values are strong binders. Where no diploid with the target was found in that replicate, the entry reads "ND": below detection, most likely a poor binder, though not proof of it. The range of this assay differs from that of the first round, and the authors advise against merging the two. The authors averaged sequences with at least three values out of six and counted those with two or fewer as poor binders. Three control strains display no target. For all light chain designs, 4% of the pairings with them gave a signal, with a median of 2.64 and one signal in twenty below 1.59, so weak values seen in few replicates may be background. For each scFv, signals with the empty controls are counted beside the result, with their mean in brackets.

CDR-L1 | CDR-L2 | CDR-L3 | log10 Kd, replicates | empty controls
TISQMTSLFSQSINNVA | EVSTRIE | QQYDRLPLV | 1.37 0.74 0.71 0.60 0.99 1.10 | 0 of 18
KISQMVRVGSTHGNSIA | EQATRAK | QQYHRLPLA | 0.93 1.73 1.57 1.88 1.84 2.09 | 0 of 18
MVYQAVMMGGVARNSIA | NATMRPD | QQYHRLPLE | 1.60 1.20 1.31 1.15 1.16 1.21 | 2 of 18 (2.55)
KLVQFMNRGTHHTSNIA | DAANRID | QQYYRLPLA | 1.20 ND 1.16 2.35 2.27 2.75 | 0 of 18
HITYGMQVKGRHMESIA | QAEERAK | QQYDRLPLA | 1.05 0.97 0.80 1.39 0.82 1.22 | 1 of 18 (3.21)
HITYGMMVHGRHSSSIA | QAEERAK | QQYDRLPLS | 0.97 0.51 0.73 1.57 0.56 1.13 | 1 of 18 (1.83)
MLSQMTGLGMKAKNSVA | QANMRFD | QQYHRLPLI | 2.37 3.46 2.79 1.15 2.44 1.39 | 0 of 18
HMSALTYQGMRMRNSVA | QMTTREN | QQYDRLPLA | 2.03 1.59 1.06 1.80 1.53 2.55 | 0 of 18
MISQLYNMGQFAINSVA | QASIRNE | QQYDRLPLM | 1.03 0.83 0.97 0.92 1.55 1.08 | 0 of 18
MISQMYNMGSFAINSVA | QASLRND | QQYDRLPLT | 2.04 1.99 1.85 ND 3.78 ND | 1 of 18 (1.94)
KLSMVHGHLSMAKNNVA | EMVTREK | QQYNRLPLS | 0.44 0.50 0.50 0.39 0.48 0.78 | 4 of 18 (2.48)
HITYGMMVHGRHAKSIA | QAEERAK | QQYDRLPLI | 1.62 0.80 0.93 2.31 0.73 1.64 | 1 of 18 (2.02)
KLSMITGHQLMAKNNVA | EMVTREN | QQYNRLPLS | 2.20 1.45 0.96 0.90 1.30 1.39 | 0 of 18
MISQLMNMGTFAINSVA | QAEIRNM | QQYDRLPLT | ND ND 2.32 ND ND 2.89 | 2 of 18 (1.76)
TISQMTSLFSQTINNVA | EVSTREE | QQYDRLPLA | 0.46 0.77 -0.27 0.55 0.18 0.20 | 0 of 18
KIGMTLNQLYEKANNVA | DLVMREN | QQYHRLPLS | 1.75 0.37 0.94 0.73 0.02 0.22 | 0 of 18
MVSQLMLWGLHAKNSIA | HAQMRLN | QQYDRLPLF | ND ND ND ND ND ND | 0 of 18
TISQVMNTLTRQGNNVA | DLAERED | QQYFRLPLS | 0.29 0.80 0.16 1.41 0.41 0.12 | 0 of 18
HITMGMYVAGRHSHSIA | QAETREK | QQYDRLPLS | 1.33 0.75 0.90 0.38 0.35 0.75 | 0 of 18
MLSDVTNGMARKHYSVA | DNSTREK | QQYDRLPLS | ND ND 2.71 ND ND ND | 2 of 18 (3.21)
QLTMITGHMSVSKNNVA | EMETRVN | QQYDRLPLS | 0.52 0.46 0.61 0.58 0.40 0.70 | 1 of 18 (2.42)
TIGVTLMQGIRNRSNVA | EVSERLN | QQYDRLPLL | 0.25 0.23 -0.11 -0.31 -0.16 -0.09 | 0 of 18
KLASVTGTEKVHGSNVA | EMETREQ | QQYNRLPLS | 0.95 0.96 1.25 0.95 1.00 0.82 | 3 of 18 (2.52)
KLSEFMRGLMGRKDSIA | DNNTRGS | QQYDRLPLS | 1.46 1.70 1.23 1.51 1.81 1.79 | 0 of 18
HMSMITLGGMRHKNSVA | QMTTREN | QQYDHLPLS | 1.04 1.07 1.15 2.54 1.20 1.49 | 0 of 18
HMSALTLMGSRVRNSVA | QMTTREN | QQYDRLPLA | 1.31 0.92 ND 0.80 0.71 1.00 | 0 of 18
HMSMLTLQGMYHRNSVA | QMTTREN | QQYDRLPLS | 0.95 1.14 0.88 1.01 0.95 0.94 | 1 of 18 (2.46)
HITYGMYVSGRYKSNIA | QAETRMK | QQYDRLPLM | 1.24 1.70 1.97 2.40 1.93 1.57 | 1 of 18 (2.96)
KLSVVTGHQLMSKDNVA | EMETREN | QQYDRLPLS | 1.08 ND 0.78 ND 1.48 ND | 0 of 18
MISQLYNMGQFAINSVA | QASERVN | QQYDRLPLM | 1.20 1.79 1.35 1.12 1.90 2.03 | 0 of 18
HMSAITLGGMRARNSVA | QMTTREN | QQYDHLPLS | 0.93 0.58 0.68 0.59 0.54 1.31 | 1 of 18 (1.77)
MVTQMAMTGMKNKRSVA | NAETREK | QQYHRLPLI | 1.85 1.66 1.88 1.54 2.14 1.33 | 3 of 18 (3.09)
KIGATLNFLEHKQNNVA | DLVTREN | QQYHRLPLS | 0.37 -0.50 0.05 0.45 -0.25 0.53 | 0 of 18
MIHESYGNMVMKKNSIA | DNSTRGE | QQYDRLPLS | 2.03 2.29 3.09 1.58 2.22 2.45 | 0 of 18
QIYQAMHTLSQVKNNVA | DVNERGS | QQYFRLPLS | 0.04 -0.16 -0.11 -0.33 -0.25 -0.08 | 5 of 18 (3.03)
IVSQLMLWGMKARNSIA | EAVTRLN | QQYDRLPLM | ND ND ND ND ND ND | 0 of 18
KISMTSENQLKNRNSVA | ELVTRMN | QQYNRLPLS | 1.65 1.26 1.15 0.87 1.22 0.71 | 0 of 18
KLVNFMNRGTHHTSNIA | DAQDRID | QQYARLPLA | 0.79 0.22 0.44 0.52 0.60 0.54 | 2 of 18 (2.69)
KLVQFMNRGTHHTSNIA | DAQNRTD | QQYYRLPLA | 0.75 1.06 0.62 0.55 0.64 0.99 | 1 of 18 (3.89)
HMSMLTLSGMRHTNSVA | QMTTRVN | QQYDRLPLM | 1.37 0.24 0.51 0.44 0.79 0.77 | 0 of 18
IVSQLMLWGMHAKNSIA | EASTRIN | QQYERLPLF | ND ND 2.28 2.13 1.58 1.80 | 0 of 18
MLSMVTEGMARKHDSVA | DNSTRES | QQYDRLPLS | ND 2.19 2.41 2.88 2.49 1.83 | 1 of 18 (2.17)

The measurements come from Li et al. 2023 (doi:10.1038/s41467-023-39022-2) through the FLAb antibody collection.